# In patent publication US10344060B2 (priority 2013, dated 2019):
# Sequences of proteins named here, by UniProt entry; tags and fusion partners are left off.
# UniProt Q15858, whole entry: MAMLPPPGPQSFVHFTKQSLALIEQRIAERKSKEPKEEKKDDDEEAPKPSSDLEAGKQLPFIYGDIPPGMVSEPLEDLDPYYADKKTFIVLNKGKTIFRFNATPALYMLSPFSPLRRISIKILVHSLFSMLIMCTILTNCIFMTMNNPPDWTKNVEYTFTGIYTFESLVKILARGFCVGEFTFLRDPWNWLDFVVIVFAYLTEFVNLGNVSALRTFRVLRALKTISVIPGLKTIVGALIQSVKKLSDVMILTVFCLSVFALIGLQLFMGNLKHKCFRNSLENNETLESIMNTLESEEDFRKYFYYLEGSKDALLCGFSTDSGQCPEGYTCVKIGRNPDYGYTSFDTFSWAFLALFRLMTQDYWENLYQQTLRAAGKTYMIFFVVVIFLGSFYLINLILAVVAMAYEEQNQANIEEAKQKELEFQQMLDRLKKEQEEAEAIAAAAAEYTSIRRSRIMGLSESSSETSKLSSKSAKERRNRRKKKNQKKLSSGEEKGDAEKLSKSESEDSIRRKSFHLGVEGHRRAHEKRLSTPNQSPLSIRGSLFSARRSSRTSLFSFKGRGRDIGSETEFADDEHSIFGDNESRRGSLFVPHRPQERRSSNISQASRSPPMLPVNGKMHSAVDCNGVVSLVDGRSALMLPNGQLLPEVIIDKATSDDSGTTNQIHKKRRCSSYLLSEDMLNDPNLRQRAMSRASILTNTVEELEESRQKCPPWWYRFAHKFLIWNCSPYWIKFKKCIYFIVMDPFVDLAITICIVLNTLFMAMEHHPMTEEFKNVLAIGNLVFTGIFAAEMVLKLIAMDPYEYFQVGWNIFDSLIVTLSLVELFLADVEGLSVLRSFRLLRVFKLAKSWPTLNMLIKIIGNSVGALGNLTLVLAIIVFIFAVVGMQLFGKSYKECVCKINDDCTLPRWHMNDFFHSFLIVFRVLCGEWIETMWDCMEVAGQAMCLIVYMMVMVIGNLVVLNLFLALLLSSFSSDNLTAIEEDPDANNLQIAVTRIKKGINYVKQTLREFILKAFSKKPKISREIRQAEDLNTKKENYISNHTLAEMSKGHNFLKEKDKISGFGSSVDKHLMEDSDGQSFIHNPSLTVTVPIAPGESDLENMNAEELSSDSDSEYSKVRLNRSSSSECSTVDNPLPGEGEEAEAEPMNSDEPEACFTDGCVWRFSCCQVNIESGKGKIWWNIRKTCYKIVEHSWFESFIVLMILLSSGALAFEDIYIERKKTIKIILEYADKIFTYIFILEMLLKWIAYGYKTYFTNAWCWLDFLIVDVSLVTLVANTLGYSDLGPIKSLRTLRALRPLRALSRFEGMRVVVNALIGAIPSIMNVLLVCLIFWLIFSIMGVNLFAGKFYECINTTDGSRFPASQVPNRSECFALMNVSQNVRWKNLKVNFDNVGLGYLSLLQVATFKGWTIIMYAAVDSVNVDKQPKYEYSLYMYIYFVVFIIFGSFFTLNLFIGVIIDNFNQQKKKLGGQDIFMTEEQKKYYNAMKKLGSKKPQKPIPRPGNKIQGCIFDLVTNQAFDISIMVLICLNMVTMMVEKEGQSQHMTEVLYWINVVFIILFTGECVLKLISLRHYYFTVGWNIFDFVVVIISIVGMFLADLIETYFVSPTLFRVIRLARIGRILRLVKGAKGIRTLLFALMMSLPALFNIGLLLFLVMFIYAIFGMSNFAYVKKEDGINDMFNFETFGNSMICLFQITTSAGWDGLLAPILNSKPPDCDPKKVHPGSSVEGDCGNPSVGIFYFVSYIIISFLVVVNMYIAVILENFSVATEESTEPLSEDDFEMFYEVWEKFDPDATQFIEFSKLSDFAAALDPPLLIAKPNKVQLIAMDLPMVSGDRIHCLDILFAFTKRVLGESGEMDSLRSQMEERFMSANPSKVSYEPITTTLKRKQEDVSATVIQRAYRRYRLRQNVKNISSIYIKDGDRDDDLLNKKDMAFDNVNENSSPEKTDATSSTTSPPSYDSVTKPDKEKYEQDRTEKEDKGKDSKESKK
# UniProt Q9UQD0, whole entry: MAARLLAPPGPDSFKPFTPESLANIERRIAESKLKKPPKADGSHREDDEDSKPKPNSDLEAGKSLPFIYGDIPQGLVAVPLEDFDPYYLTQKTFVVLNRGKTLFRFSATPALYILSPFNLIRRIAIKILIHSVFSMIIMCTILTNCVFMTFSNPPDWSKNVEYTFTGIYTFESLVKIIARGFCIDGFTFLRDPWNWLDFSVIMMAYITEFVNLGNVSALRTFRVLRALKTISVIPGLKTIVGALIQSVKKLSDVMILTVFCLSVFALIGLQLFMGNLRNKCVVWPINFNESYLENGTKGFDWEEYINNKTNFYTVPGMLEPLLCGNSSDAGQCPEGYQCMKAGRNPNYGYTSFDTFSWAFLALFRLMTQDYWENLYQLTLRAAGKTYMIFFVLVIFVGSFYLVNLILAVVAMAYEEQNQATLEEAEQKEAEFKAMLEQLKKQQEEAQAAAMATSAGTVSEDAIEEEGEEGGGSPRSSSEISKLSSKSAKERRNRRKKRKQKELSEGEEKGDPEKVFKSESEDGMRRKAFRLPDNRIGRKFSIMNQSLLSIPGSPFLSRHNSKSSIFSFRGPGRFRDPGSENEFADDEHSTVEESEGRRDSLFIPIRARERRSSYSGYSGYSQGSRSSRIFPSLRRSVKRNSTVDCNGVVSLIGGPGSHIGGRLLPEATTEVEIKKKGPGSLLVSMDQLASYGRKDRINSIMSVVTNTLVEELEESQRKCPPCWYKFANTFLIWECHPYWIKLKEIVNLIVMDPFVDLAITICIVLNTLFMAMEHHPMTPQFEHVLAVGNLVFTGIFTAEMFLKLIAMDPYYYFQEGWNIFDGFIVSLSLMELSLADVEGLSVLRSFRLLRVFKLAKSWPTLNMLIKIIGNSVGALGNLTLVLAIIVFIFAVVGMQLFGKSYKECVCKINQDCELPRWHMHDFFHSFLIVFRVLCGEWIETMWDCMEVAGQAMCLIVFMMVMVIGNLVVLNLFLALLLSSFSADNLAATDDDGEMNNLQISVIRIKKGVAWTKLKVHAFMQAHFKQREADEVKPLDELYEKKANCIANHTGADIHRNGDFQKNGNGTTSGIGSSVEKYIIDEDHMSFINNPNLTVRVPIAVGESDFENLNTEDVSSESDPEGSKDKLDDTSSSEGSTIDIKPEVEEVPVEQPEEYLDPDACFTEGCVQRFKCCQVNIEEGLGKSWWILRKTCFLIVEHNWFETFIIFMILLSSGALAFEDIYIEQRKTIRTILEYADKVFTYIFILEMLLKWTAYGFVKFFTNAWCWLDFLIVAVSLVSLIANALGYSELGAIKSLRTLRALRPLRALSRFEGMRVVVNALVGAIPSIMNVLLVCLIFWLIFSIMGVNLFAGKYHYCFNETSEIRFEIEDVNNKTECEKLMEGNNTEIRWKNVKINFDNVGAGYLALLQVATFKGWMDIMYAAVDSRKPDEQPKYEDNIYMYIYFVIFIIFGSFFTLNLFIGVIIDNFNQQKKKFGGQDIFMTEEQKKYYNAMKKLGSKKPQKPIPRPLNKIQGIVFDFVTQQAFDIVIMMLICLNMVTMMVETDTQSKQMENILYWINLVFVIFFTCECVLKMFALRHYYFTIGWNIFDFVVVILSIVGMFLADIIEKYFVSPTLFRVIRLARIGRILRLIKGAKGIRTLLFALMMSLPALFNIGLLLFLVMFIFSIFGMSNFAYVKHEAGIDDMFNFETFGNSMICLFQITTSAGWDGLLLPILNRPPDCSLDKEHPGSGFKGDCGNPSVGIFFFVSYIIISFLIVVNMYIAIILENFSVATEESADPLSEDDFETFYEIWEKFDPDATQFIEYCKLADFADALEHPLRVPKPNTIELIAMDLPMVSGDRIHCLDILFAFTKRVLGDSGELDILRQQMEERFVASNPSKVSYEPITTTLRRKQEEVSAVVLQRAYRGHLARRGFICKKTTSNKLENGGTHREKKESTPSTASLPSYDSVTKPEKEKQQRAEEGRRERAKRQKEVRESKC
# Tests used:
# [1] = target: hNav1.7 (Homo sapiens, UniProt Q15858); test: cell-based; settings: read-out: PX hNav1.7 Tonic IC50
# [2] = target: hNav1.6 (Homo sapiens, UniProt Q9UQD0); test: cell-based; settings: Table 15; read-out: PX hNav1.6 Tonic IC50
structure (smiles),measurement,setting,value
C#CC[C@H](N)C(=O)N[C@@H](Cc1ccc(O)cc1)C(=O)N[C@H]1CSSC[C@@H]2NC(=O)[C@@H]3CSSC[C@@H](C(=O)N[C@@H](CCCNC(=N)N)C(=O)N[C@@H](CCCCN)C(=O)N[C@@H](CCC(=O)O)C(=O)N[C@H](C(N)=O)[C@@H](C)CC)NC(=O)[C@H](Cc4c[nH]c5ccccc45)NC(=O)[C@H](CC(C)C)NC(=O)[C@H](CCCCN)NC(=O)[C@H](CSSC[C@H](NC(=O)[C@H]([C@@H](C)O)NC(=O)[C@H](Cc4c[nH]c5ccccc45)NC(=O)[C@H](CCCC)NC(=O)[C@H](Cc4c[nH]c5ccccc45)NC(=O)[C@H](CCCCN)NC(=O)[C@H](CCC(N)=O)NC1=O)C(=O)N[C@@H](CC(=O)O)C(=O)N[C@@H](CO)C(=O)N[C@@H](CCCCN)C(=O)N[C@@H](CCCNC(=N)N)C(=O)N[C@@H](C)C(=O)N3)NC(=O)[C@H](CCCNC(=N)N)NC(=O)[C@H](CCC(=O)O)NC(=O)CNC(=O)[C@H](CCC(=O)O)NC2=O [compound 720],IC50,"[1]; Table 12, PatchXpress, tonic block",> 1000 nM
same,IC50,[1]; Table 15,> 1000 nM
same,IC50,[2],> 10000 nM

# Read-outs that look alike come from different tables or passages of the source.
